Chains of the proteins cited; added tags and fusions are not shown. Residues count along the entry.
UniProt Q13224, 27-1484: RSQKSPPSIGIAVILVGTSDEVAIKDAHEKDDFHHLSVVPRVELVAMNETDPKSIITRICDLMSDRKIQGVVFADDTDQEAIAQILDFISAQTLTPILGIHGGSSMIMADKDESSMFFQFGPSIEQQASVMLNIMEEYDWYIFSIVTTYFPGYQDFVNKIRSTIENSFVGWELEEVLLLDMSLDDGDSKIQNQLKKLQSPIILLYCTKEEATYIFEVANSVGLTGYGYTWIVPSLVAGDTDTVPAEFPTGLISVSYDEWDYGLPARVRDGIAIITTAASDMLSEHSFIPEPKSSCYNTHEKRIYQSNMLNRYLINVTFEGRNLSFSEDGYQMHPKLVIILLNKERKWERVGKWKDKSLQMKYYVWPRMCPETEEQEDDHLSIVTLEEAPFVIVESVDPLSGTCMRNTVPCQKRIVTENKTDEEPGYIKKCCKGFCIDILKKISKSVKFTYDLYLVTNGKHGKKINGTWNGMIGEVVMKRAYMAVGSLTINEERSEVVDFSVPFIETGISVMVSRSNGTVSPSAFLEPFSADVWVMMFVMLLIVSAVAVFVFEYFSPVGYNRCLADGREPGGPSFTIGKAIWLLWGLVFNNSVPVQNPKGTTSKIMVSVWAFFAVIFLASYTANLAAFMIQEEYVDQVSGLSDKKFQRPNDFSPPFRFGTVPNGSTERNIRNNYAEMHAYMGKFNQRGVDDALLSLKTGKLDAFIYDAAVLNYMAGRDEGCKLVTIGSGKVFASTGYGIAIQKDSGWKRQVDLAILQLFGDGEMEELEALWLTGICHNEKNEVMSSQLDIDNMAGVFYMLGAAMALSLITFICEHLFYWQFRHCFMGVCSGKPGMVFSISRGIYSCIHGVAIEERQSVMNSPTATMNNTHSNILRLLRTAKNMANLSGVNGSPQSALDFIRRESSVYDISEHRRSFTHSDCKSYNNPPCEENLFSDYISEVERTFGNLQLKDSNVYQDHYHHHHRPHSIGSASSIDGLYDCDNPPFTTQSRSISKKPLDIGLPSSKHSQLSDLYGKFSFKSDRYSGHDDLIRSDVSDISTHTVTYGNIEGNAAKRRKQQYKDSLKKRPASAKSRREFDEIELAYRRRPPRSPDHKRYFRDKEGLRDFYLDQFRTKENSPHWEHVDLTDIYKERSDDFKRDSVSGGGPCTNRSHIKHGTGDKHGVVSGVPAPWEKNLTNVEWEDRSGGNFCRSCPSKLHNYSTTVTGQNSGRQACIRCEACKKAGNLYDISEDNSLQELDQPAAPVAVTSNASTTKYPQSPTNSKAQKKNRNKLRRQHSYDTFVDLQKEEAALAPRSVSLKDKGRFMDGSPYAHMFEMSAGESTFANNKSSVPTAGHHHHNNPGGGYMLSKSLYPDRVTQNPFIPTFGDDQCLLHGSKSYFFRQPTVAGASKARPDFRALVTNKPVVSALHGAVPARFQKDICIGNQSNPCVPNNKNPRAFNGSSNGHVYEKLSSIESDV
UniProt Q12879, 23-1464: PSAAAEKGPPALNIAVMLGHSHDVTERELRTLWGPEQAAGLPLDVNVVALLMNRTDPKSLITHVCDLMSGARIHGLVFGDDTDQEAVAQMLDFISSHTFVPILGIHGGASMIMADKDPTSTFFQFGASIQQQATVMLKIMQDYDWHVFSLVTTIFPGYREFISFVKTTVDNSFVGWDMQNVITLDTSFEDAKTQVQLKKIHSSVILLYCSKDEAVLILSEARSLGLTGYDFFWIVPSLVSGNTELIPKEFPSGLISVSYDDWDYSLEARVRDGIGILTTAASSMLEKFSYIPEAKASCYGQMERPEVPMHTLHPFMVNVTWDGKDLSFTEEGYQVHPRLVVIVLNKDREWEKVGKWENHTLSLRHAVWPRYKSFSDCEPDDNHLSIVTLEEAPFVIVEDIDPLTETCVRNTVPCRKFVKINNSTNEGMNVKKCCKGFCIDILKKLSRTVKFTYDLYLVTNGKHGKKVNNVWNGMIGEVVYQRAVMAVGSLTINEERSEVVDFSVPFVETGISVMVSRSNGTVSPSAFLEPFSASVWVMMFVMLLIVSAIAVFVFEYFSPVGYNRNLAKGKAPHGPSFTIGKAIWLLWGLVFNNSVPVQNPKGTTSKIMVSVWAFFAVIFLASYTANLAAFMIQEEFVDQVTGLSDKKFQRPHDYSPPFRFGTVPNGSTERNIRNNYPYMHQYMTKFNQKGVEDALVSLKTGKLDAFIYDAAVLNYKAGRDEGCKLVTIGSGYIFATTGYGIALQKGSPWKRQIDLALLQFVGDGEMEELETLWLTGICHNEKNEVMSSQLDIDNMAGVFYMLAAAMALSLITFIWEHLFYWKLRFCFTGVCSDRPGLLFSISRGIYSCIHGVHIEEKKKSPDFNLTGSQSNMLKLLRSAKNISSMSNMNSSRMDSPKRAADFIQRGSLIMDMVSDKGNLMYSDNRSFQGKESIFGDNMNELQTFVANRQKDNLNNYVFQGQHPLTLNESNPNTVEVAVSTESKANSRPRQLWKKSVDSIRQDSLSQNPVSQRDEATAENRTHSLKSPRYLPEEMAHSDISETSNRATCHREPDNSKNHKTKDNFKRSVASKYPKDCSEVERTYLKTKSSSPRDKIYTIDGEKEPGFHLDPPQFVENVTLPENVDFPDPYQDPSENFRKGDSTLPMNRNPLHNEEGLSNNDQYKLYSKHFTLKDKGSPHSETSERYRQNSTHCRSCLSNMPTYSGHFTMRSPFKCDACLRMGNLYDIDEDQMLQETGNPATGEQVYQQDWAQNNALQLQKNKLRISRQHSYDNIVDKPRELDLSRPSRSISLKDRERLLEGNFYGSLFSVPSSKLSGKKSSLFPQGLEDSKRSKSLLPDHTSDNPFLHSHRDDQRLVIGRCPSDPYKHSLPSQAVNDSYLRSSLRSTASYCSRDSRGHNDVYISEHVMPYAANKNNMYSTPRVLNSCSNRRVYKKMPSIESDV

In patent US11149054B2, “Oxysterols and methods of use thereof” (Sage Therapeutics, Inc., priority 2016, dated 2021):

Experiments:
[1] = target: GluN2B glutamate receptors (Homo sapiens (Human), UniProt Q05586+Q13224); test: Whole-cell patch clamp of mammalian cells (Ionworks Barracuda), positive allosteric modulation, GluN2B; assay type: cell-based; conditions: co-application with EC20 L-glutamate and 30 μM glycine; 8-point concentration-response; read-out: Avg EC50 2B
Protocol: (§1) The measurements were performed using Ion Works Barracuda platform following this procedure:
(§2) Electrophysiological Procedures:
(§3) • a) Intracellular solution (mM): 50 mM CsCl, 90 mM CsF, 2 mM MgCl2, 5 mM EGTA, 10 mM HEPES. Adjust to pH 7.2 with CsOH. • b) Extracellular solution, HB-PS (composition in mM): NaCl, 137; KCl, 1.0; CaCl2), 5; HEPES, 10; Glucose, 10; pH adjusted to 7.4 with NaOH (refrigerated until use). • c) Holding potential: −70 mV, potential during agonist/PAM application: −40 mV. Recording Procedure: • a) Extracellular buffer will be loaded into the PPC plate wells (11 μL per well). Cell suspension will be pipetted into the wells (9 μL per well) of the PPC planar electrode. • b) Whole-cell recording configuration will be established via patch perforation with membrane currents recorded by on-board patch clamp amplifiers. • c) Two recordings (scans) will be performed. First, during pre-application of test article alone (duration of pre-application—[…]) and second, during test articles and agonist (EC20 L-glutamate and 30 μM glycine) co-application to detect positive modulatory effects of the test article. […] Potentiating Effect of Positive Allosteric Modulators (PAM) on the Channel
PAM concentration-response data will be fitted to an equation of the form: % Activation=% L-glutamate EC20+{(% MAX−% L-glutamate EC20)/[1+([Test]/EC50)^N]}, where [Test] will be the concentration of PAM (test article), EC50 will be the concentration of PAM producing half-maximal activation, N will be the Hill coefficient, % L-glutamate EC20 will be the percentage of the current Elicited with L-glutamate EC20, % MAX is the percentage of the current activated with the highest dose of PAM co-admitted with L-glutamate EC20 and % Activation will be the percentage of the current elicited with L-glutamate EC10-30 at each PAM concentration. The maximal amplitude of the evoked currents are measured and defined as Peak Current Amplitude (PCA).

[2] = target: GlunN1/GluN2A glutamate receptors (Homo sapiens (Human), UniProt Q05586+Q12879); test: Whole-cell patch clamp of mammalian cells (Ionworks Barracuda), positive allosteric modulation, GluN1/GluN2A; assay type: cell-based; conditions: HEK293 cells; co-application with EC20 L-glutamate and 30 μM glycine; 8-point concentration-response; read-out: Avg EC50 2A
Protocol: as §1, §2
as §3, with “Channel […]” for “Channel”

Compound	EC50 [1]	EC50 [2]
CC[C@]1(O)CC[C@H]2C(=CC[C@@H]3[C@@H]2CC[C@]2(C)[C@@H]([C@H](C)CCCC(C)(C)O)CC[C@@H]32)C1 [Compound 194]	144 nM	–
C[C@H](CCC(C)(C)O)[C@H]1CC[C@H]2[C@@H]3CC=C4C[C@](O)(C(F)(F)F)CC[C@]4(C)[C@H]3CC[C@]12C [Compound 1839]	148 nM	–
C[C@H](CCC1(O)CCC(C)(C)CC1)[C@H]1CC[C@H]2[C@@H]3CC[C@H]4C[C@](O)(C(F)(F)F)CC[C@]4(C)[C@H]3CC[C@]12C [Compound E-2817]	5370 nM	5070 nM
